Results published in US20110111016A1, “NON-DNA BASE-CONTAINING POLYNUCLEOTIDE COMPOSITIONS AND THEIR USE FOR THE MODULATION OF IMMUNE RESPONSES” (priority 2009, published 2011).

Target: T1, human TLR8 (Homo sapiens, UniProt Q9NR97)
T1 construct: host or cells: HEK293
T1 sequence (Q9NR97 27-1041): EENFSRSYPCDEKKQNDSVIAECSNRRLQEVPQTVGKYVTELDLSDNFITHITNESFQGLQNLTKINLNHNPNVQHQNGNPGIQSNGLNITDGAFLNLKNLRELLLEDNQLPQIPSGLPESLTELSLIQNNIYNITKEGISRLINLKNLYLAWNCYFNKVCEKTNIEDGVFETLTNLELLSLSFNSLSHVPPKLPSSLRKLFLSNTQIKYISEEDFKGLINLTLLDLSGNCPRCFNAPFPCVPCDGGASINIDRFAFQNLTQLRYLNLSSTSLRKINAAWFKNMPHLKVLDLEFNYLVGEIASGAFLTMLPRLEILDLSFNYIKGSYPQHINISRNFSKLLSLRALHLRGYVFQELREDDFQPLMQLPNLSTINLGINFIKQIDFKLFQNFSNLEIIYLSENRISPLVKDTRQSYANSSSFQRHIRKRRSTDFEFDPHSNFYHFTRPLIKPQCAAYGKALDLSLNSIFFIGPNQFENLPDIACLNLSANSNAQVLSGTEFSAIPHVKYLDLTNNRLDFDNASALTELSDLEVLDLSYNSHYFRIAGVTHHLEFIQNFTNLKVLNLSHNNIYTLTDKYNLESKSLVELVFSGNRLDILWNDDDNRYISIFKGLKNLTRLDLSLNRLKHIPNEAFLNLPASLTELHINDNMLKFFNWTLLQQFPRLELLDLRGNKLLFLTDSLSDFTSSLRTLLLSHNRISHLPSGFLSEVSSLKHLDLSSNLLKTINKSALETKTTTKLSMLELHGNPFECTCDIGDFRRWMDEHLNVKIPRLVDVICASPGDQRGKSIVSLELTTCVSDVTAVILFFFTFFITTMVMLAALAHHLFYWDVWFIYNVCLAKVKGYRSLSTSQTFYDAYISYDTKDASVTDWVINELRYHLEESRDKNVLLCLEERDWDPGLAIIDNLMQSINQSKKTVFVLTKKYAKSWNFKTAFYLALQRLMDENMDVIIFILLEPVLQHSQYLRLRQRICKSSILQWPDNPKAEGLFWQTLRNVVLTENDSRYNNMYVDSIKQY
Test: NF-κB activation (secreted alkaline phosphatase reporter) in HEK293 cells expressing human TLR8
Format: cell-based
Conditions: HEK293/hTLR8 cell line; at 1 μg/mL; 16-20 hours

CL075 [reference compound]
TLR activation, Optical Density at 650 nm, hTLR8, positive control: 3.137
